According to patent US9440957B2, “Compounds and compositions for modulating EGFR Activity” (Novartis AG, priority 2012, dated 2016):
pIC50: −log10 of the molar value. Like-named read-outs stand apart in the source and are kept apart here.

Chains of the proteins cited; added tags and fusions are not shown. Residues count along the entry.
UniProt P00533, 669-1210 T790M/L858R: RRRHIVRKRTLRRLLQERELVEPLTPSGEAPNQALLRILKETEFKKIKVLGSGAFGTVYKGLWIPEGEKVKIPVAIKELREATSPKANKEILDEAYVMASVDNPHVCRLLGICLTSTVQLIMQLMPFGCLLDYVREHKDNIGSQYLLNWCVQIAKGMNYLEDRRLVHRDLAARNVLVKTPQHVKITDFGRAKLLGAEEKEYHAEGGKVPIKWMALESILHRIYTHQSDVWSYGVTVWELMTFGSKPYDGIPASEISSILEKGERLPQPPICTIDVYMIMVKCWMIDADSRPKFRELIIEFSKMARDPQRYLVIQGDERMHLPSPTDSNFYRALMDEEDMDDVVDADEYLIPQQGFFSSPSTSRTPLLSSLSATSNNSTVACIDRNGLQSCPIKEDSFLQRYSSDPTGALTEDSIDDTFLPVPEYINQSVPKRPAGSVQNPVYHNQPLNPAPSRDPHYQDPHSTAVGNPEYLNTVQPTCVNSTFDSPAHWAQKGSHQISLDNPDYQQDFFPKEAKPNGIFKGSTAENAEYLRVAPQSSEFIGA
UniProt P00533, 25-1210: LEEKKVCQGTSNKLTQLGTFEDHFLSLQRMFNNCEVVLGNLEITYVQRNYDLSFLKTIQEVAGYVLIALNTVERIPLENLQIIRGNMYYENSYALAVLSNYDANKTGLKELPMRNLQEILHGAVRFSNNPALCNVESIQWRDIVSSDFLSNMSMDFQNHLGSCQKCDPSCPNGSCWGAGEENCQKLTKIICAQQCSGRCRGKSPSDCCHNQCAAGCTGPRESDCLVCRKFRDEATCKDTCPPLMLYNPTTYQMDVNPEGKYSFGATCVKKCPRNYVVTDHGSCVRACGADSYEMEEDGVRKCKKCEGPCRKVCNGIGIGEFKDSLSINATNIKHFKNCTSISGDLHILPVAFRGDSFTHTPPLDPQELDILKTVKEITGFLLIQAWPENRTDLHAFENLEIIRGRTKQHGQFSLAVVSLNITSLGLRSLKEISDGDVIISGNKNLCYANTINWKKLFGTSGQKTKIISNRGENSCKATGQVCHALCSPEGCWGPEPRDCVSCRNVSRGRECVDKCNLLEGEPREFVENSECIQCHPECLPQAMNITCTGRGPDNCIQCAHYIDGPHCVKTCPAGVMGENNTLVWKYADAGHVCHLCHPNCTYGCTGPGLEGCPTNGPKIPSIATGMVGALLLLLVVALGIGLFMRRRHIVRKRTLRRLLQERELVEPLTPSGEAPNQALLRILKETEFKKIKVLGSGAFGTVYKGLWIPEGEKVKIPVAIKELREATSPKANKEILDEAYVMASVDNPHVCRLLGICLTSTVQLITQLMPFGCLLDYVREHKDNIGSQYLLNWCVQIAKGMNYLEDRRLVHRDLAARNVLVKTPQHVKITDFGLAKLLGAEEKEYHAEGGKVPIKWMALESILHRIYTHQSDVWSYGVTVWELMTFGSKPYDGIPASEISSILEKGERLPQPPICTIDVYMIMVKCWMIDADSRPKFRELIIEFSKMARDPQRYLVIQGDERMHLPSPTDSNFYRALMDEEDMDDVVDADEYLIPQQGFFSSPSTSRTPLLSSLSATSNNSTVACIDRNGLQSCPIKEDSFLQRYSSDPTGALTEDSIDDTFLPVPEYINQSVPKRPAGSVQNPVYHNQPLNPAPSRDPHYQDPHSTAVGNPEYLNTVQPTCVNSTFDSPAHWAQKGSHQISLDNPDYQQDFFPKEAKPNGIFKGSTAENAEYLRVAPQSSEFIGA
UniProt P00533, 25-1210 L858R: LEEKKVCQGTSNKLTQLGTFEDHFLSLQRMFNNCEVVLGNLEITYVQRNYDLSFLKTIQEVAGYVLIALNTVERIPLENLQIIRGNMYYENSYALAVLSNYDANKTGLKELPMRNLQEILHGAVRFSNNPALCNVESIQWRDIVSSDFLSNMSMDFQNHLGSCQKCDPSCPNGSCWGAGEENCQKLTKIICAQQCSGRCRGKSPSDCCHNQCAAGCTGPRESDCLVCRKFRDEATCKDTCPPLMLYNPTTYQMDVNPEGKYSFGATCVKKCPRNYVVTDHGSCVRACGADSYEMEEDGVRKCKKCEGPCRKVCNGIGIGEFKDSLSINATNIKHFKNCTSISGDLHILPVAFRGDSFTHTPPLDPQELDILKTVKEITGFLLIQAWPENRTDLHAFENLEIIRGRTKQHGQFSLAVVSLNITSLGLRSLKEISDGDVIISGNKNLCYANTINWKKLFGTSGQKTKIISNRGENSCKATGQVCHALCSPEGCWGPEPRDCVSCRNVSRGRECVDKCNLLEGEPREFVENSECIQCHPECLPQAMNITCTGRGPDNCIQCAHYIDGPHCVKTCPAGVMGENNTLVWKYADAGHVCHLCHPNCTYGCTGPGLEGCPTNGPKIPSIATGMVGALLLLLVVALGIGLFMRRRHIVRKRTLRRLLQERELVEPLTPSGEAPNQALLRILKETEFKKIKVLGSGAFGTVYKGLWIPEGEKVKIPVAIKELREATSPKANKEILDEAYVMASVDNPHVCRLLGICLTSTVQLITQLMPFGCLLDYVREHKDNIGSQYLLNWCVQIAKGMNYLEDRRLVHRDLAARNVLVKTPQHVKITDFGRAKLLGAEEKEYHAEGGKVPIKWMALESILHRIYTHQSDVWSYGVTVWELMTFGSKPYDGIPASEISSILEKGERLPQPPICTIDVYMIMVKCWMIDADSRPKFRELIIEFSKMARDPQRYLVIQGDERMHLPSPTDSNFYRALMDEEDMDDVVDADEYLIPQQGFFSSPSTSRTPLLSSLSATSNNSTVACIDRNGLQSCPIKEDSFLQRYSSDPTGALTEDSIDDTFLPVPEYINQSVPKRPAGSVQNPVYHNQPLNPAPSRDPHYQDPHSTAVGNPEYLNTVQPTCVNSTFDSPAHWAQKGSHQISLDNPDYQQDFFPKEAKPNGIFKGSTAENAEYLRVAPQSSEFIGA
UniProt P00533, 25-1210 T790M/L858R: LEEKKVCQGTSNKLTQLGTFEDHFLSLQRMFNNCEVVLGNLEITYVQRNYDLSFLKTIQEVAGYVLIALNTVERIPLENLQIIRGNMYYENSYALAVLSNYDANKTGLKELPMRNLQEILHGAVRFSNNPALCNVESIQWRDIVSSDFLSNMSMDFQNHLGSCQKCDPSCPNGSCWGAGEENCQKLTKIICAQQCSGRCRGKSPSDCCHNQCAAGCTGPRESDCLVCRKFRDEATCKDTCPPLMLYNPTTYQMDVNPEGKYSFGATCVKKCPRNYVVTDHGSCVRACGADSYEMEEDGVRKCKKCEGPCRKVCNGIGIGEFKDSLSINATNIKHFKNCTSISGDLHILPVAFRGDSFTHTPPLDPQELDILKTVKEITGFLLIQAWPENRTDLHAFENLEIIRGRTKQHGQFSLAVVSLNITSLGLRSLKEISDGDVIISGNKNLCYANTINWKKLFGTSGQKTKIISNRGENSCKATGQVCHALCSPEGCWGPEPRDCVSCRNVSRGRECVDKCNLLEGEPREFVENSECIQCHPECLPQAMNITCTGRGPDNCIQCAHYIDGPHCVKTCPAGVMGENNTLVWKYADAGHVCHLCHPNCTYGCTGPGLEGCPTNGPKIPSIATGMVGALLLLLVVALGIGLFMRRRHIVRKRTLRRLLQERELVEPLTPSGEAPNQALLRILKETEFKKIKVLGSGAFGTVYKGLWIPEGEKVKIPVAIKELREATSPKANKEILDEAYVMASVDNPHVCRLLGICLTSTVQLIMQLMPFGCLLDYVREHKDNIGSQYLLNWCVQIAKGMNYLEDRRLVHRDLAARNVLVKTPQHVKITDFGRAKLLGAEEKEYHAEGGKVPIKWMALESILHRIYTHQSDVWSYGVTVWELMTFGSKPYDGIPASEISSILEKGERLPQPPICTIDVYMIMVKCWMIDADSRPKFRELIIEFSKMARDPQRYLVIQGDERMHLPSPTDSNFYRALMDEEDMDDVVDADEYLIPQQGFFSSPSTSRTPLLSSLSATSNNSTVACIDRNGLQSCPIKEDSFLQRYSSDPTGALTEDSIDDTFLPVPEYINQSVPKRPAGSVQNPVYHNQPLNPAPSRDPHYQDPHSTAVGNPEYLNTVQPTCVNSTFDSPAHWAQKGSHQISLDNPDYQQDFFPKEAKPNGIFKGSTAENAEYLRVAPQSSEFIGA

Columns and labels:
[1] = molecular target: T1, EGFR(L858R/T790M) (Homo sapiens, UniProt P00533, L858R/T790M); test: EGFR biochemical assay (HTRF), IC50 determinations
T1 construct: purchased from Carna (GST-a.a. 669-1210)
Experimental: All EGFR biochemical assays were carried out by HTRF method. The EGFR(L858R/T790M) enzyme were purchased from Carna (GST-a.a. 669-1210). The substrate peptide Biotin-TK-peptide was purchased from Cis-Bio. The reaction mixtures contained 1 μM peptide substrate, 10 μM ATP, and 0.036 nM EGFR(L858R/T790M) in the reaction buffer (50 mM HEPES pH 7.1, 10 mM MgCl2, 0.01% BSA, 1 mM TCEP and 0.1 mM Na3VO4) at a final volume of 10 μL. All reactions were carried out at room temperature in white ProxiPlate™ 384-well Plus plates (PerkinElmer) and were quenched with 5 μL of 0.2 M EDTA at 60 min. Five L of the detection reagents (2.5 ng PT66K and 0.05 μg SAXL per well) were added, the plates were incubated at room temperature for 1 h and then read in EnVision reader. […] For no-preincubation condition, the compounds were added to the assay solution containing ATP and peptide, and the reaction was initiated by addition of enzyme. For pre-incubation conditions, the compounds were added to the assay solution containing enzyme and peptide, and pre-incubated at room temperature for desired period of time, then the reaction was initiated by addition of ATP.

[2] = molecular target: human EGFR WT (NIH/3T3 cells, EGF-induced) (Homo sapiens, UniProt P00533); test: EGFR target modulation in engineered NIH/3T3 cell lines (phospho-EGFR Y1068 AlphaLISA), EGFR WT; type: cell-based; details: engineered NIH/3T3 cells, read-out: NIH3T3 IC50 (μM) EGFR (WT)
Experimental: (§1) EGFR Target Modulation in Engineered NIH/3T3 Cell Lines Tissue Culture.
(§2) The cells were harvested with 0.05% Trypsin/EDTA (Hyclone #SH30236.01), re-suspended in 5% FBS/DMEM Pen/Strep without Puromycin and plated at 9,000 cells per well in 50 μl of media in a 384-well black plate with clear bottoms (Greiner #789068G). The cells were allowed to incubate overnight in a 37° C., 5% CO2 humidified tissue culture incubator. A 12-point test compound curve was prepared by serial diluting a 10 μM stock 1:3 in DMSO in a 384-well compound plate (Greiner #789201L). The serial diluted compounds were transferred to the plate containing cells by using a 50 nl Pin Head device (Perkin Elmer) and the cells were placed back in the incubator for 3 hours. Only the EGFR WT-expressing cells were induced with 50 ng/ml EGF (Preprotech #AF-100-15) for 5 minutes before lysis. […] The plates were shaken at 4° C. for 5 minutes with foil top at maximum speed. […] The plates were sealed with a foil top and frozen at −80° C. and thawed when needed.
(§3) The frozen aliquots were thawed and briefly centrifuged. All antibodies and beads were diluted in 1× AlphaLISA HiBlock Buffer (PE #AL004C). […]
(§4) With these parameters, the IC50's for each compound in each cell line was calculated using non-linear curve fitting analysis.

[3] = molecular target: human EGFR L858R (NIH/3T3 cells) (Homo sapiens, UniProt P00533, L858R); test: EGFR target modulation in engineered NIH/3T3 cell lines (phospho-EGFR Y1068 AlphaLISA), EGFR L858R; type: cell-based; details: engineered NIH/3T3 cells, read-out: NIH3T3 IC50 (μM) EGFR (L858R)
Experimental: as §1, §2, §3, §4

[4] = molecular target: HEKn (EGFR WT) (Homo sapiens, UniProt P00533); test: EGFR target modulation in HEKn (EGFR-WT) cell line (phospho-EGFR Y1173 ELISA); type: cell-based; details: value outside parentheses
Experimental: EGFR Target Modulation in HEKn (EGFR-WT) Cell Line Tissue Culture. Human neonatal epithelial keratinocytes (Invitrogen #C-001-5C) were maintained in EpiLife media (Invitrogen #[…]) supplemented with growth factors (Invitrogen #S-001-5). Cells were harvested with 0.05% Trypsin/EDTA (Hyclone #SH30236.01) and quenched with 5% FBS/EpiLife media. […] The serial diluted compounds were transferred to the plate containing cells by using a 50 nl Pin Head device (Perkin Elmer) and the cells were placed back in the incubator for 3 hours. […] Phospho-EGFR (Y1173) ELISA. Solid white high-binding ELISA plates (Greiner #781074) were coated with 5 ug/ml anti-EGFR capture antibody (R&D Systems #AF231) overnight in 50 mM carbonate/bicarbonate pH 9.5 buffer. […] Wash steps were carried out with a Bio-Tek ELx405 SelectTM using 4 cycles of 100 ul TBS-T (20 mM Tris, 137 mM NaCl, 0.05% Tween-20) per well. […] Lysis was allowed to occur for 20 minutes on ice. A 25 ul aliquot was added to each well of the blocked ELISA plate and incubated overnight at 4° C. with gentle shaking. […] After washing, 1:2,000 anti-rabbit-HRP (Cell Signaling #7074) in 0.2% BSA/TBS-T was added and incubated for 1 hour at room temperature. […] Signal was read on EnVision plate reader using built-in UltraLUM setting. […] With these parameters, the IC50's for each compound in each cell line was calculated using non-linear curve fitting analysis.

[5] = molecular target: H1975 (EGFR L858/T790M) (Homo sapiens, UniProt P00533, L858R/T790M); test: EGFR target modulation in H1975 cell line (phospho-EGFR Y1173 ELISA); type: cell-based
Experimental: (§5) EGFR Target Modulation in H1975, H3255 and HCC827 Cell Lines Tissue Culture. Cells were maintained in 10% FBS/RPMI supplemented with 100 μg/ml Penicillin/Streptomycin (Hyclone #SH30236.01). […] The cells were allowed to incubate overnight in a 37° C., 5% CO2 humidified tissue culture incubator. […] The serial diluted compounds were transferred to the plate containing cells by using a 50 nl Pin Head device (Perkin Elmer) and the cells were placed back in the incubator for 3 hours. Phospho-EGFR ([…]) Target Modulation Assay. The media was reduced to 20 ul using a Bio-Tek ELx 405 SelectTM plate washer. […] The plates were shaken at 4° C. for 20 minutes. An aliquot of 25 ul from each well was transferred to pEGFR(Y1173) ELISA plates for analysis. Phospho-EGFR ([…]) ELISA. Solid white high-binding ELISA plates (Greiner #781074) were coated with 5 ug/ml anti-EGFR capture antibody (R&D Systems #AF231) overnight in 50 mM carbonate/bicarbonate pH 9.5 buffer. Plates were blocked with 1% BSA (Sigma #A7030) in PBS for 1 hour at room temperature. Wash steps were carried out with a Bio-Tek ELx405 SelectTM using 4 cycles of 100 ul TBS-T (20 mM Tris, 137 mM NaCl, 0.05% Tween-20) per well. […] Lysis was allowed to occur for 20 minutes on ice. A 25 ul aliquot was added to each well of the blocked ELISA plate and incubated overnight at 4° C. with gentle shaking. […] After washing, 1:2,000 anti-rabbit-HRP (Cell Signaling #7074) in 0.2% BSA/TBS-T was added and incubated for 1 hour at room temperature. Chemiluminescent detection was carried out with SuperSignal ELISA Pico substrate (ThermoScientific #37069). Signal was read on EnVision plate reader using built-in UltraLUM setting. Data Analysis. Control cells treated with EGF were set to 100% maximum response. […] With these parameters, the IC50's for each compound in each cell line was calculated using non-linear curve fitting analysis.

[6] = molecular target: H3255 (EGFR L858R) (Homo sapiens, UniProt P00533, L858R); test: EGFR target modulation in H3255 cell line (phospho-EGFR Y1173 ELISA); type: cell-based
Experimental: as §5

[7] = molecular target: human EGFR L858R/T790M (NIH/3T3 cells) (Homo sapiens, UniProt P00533, L858R/T790M); test: EGFR target modulation in engineered NIH/3T3 cell lines (phospho-EGFR Y1068 AlphaLISA), EGFR L858R/T790M; type: cell-based; details: engineered NIH/3T3 cells, read-out: NIH3T3 IC50 (μM) EGFR (L858R/T790M)
Experimental: as §1, §2, §3, §4

[8] = molecular target: HaCaT (EGFR WT) (Homo sapiens, UniProt P00533); test: EGFR target modulation in HaCaT (EGFR-WT) cell line (phospho-EGFR Y1173 ELISA); type: cell-based; details: value in parentheses
Experimental: EGFR Target Modulation in HaCaT (EGFR-WT) Cell Line Tissue Culture. […] The serial diluted compounds were transferred to the plate containing cells by using a 50 nl Pin Head device (Perkin Elmer) and the cells were placed back in the incubator for 3 hours. […] Phospho-EGFR ([…]) ELISA. Solid white high-binding ELISA plates (Greiner #781074) were coated with 5 ug/ml anti-EGFR capture antibody (R&D Systems #AF231) overnight in 50 mM carbonate/bicarbonate pH 9.5 buffer. […] Wash steps were carried out with a Bio-Tek ELx405 SelectTM using 4 cycles of 100 ul TBS-T (20 mM Tris, 137 mM NaCl, 0.05% Tween-20) per well. […] Lysis was allowed to occur for 20 minutes on ice. A 25 ul aliquot was added to each well of the blocked ELISA plate and incubated overnight at 4° C. with gentle shaking. […] After washing, 1:2,000 anti-rabbit-HRP (Cell Signaling #7074) in 0.2% BSA/TBS-T was added and incubated for 1 hour at room temperature. Chemiluminescent detection was carried out with SuperSignal ELISA Pico substrate (ThermoScientific #37069). Signal was read on EnVision plate reader using built-in UltraLUM setting. Data Analysis. Control cells treated with EGF were set to 100% maximum response. […] With these parameters, the IC50's for each compound in each cell line was calculated using non-linear curve fitting analysis.

[9] = EGFR (L858R/T790M) with 90 min pre-incubation, read-out: IC50 (μM) Column B
[10] = EGFR (L858R/T790M) with no pre-incubation, read-out: IC50 (μM) Column A

| Compound | IC50 [1, 9] [µM] | IC50 [1, 10] [µM] | IC50 [2] [µM] | IC50 [3] [µM] | pIC50 [4] | pIC50 [5] | pIC50 [6] | IC50 [7] [µM] | pIC50 [8] |
| --- | --- | --- | --- | --- | --- | --- | --- | --- | --- |
| Cc1cc(C(=O)Nc2nc3cccc(Cl)c3n2[C@@H]2CCCCN(C(=O)/C=C/CN(C)C)C2)ccn1 [Example 5, (R,E)-N-(7-chloro-1-(1-(4-(dimethylamino)but-2-enoyl)azepan-3-yl)-1H-benzo[d]imidazol-2-yl)-2-methylisonicotinamide] | < 0.001 | 0.008 | 0.259 | 0.015 | 5.93 | 7.89 | 7.52 | 0.011 |  |
| [2H]C([2H])([2H])N(C/C=C/C(=O)N1CCCC[C@@H](n2c(NC(=O)c3ccnc(C)c3)nc3cccc(Cl)c32)C1)C([2H])([2H])[2H] [Example 17-189] | < 0.001 | 0.005 |  |  |  | 8.52 | 8.30 |  | 7.08 |
| Cc1cc(C(=O)Nc2nc3cccc(Cl)c3n2[C@H]2CCCCN(C(=O)/C=C/CN(C)C)C2)ccn1 [Example 17-196] | 0.025 | 0.374 |  |  |  | 6.56 | 6.53 |  | < 5.00 |
